Like-named read-outs stand apart in the source and are kept apart here.
Experiments:
[1] = system: severe preeclampsia/HELLP syndrome; format: in vivo, human
Description: A nulliparous person at 26 weeks gestation, with no significant medical history and normal BMI (19.8 kg/m^2) presented to their local hospital with severe epigastric pain. […] They were diagnosed with HELLP syndrome; betamethasone was administered for fetal maturation and magnesium sulfate for seizure prophylaxis, and they were transferred to our institution for anticipated delivery and neonatal support.
On arrival the patient was afebrile with normal neurologic status; blood pressure was 161/88 mmHg and labwork confirmed ongoing hemolysis, elevated liver enzymes and low platelets. Since there are several imitators of severe preeclampsia/HELLP syndrome, we performed an extensive work-up for alternative etiologies; also, review of medical history and prenatal records discovered no pre-existing hypertension, renal disease, or clotting disorder.
Routine studies, including serum creatinine, bilirubin, fibrinogen, coagulation studies, and glucose were normal; ANA screen and viral hepatitis panel were negative. Given no evidence for acute fatty liver of pregnancy, thrombotic thrombocytopenic purpura, hemolytic uremic syndrome, or systemic lupus erythematosus, we felt that the clinical presentation was most consistent with severe preeclampsia/HELLP syndrome. Ultrasound estimated fetal weight was 893 g (11th percentile) with normal amniotic fluid and diminished umbilical artery dopplers. Neonatal consult was obtained, after which the patient expressed reticence to be delivered due to newborn risks of marked prematurity and inquired about alternative treatment approaches. We discussed preeclampsia/HELLP syndrome as a systemic inflammatory disorder with the complement cascade a key mediator.
The patient's initial course was complicated by escalating blood pressures and pulmonary edema, which responded to Labetalol and Lasix, respectively. […] By treatment day 6, LDH, haptoglobin, AST, and platelet count normalized, FIG. 5a-b.
(§1) Fetal status was reassuring as indicated by continuous fetal heart monitoring, daily biophysical profile and umbilical artery dopplers; a 24 h urine collection was completed and measured 383 mg protein. […] That day blood pressures rose necessitating addition of Nifedipine. Of note, a trough level of Eculizumab was sub-therapeutic to block complement-dependent hemolysis (Alexion Pharmaceuticals). By 24 h after the second infusion, blood pressures improved and Labetalol was discontinued.
On treatment day 16, a 24 h urine collection measured 4522 mg of protein. Concomitantly, blood pressures rose (140-160/90-100 mmHg) and laboratory parameters began to worsen, FIG. 5a-b. Due to worsening status, delivery was recommended. Cesarean delivery was performed at 29 2/7 wks gestation, resulting in a neonate weighing 1220 g, with Apgars 4 and 8 at 1 and 5 min. The placenta was severely fragmented, weighing 155 g. Post-operatively there was spontaneous diuresis; blood pressure and lab parameters improved. Two units of packed red blood cells were transfused for symptomatic anemia (Hgb 6.9 g/dL). The patient was discharged on post-operative day 4 and remained well postpartum, discontinuing Nifedipine at 6 weeks. Postpartum evaluation for antiphospholipid antibodies was negative.
While not wishing to be bound by any particular theory, we believe in our case that increasing placental mass and feto-placental debris ultimately tipped the balance toward inflammation, overwhelming the initial complement inhibition and resulting in resurgent disease. Future investigations would help correlate the clinical changes seen with levels of investigational biomarkers such as complement proteins, angiogenic markers or inflammatory cytokines Nevertheless, pregnancy was prolonged by 17 days, allowing further fetal growth and maturation and likely resulting in reduced neonatal morbidity with its associated short and long-term health care costs.

[2] = literature [15]; cited from earlier work
[3] = Eculizumab levels in maternal blood, cord blood and breast milk (Alexion Pharmaceuticals); format: in vivo, human
Description: as §1
The neonate was intubated at 10 min of life for respiratory support and admitted to the NICU. They were extubated the following morning after one dose of surfactant; blood cultures were negative; and head ultrasound was normal. NICU course was notable for a patent ductus arteriosus (responsive to Indomethacin) and inguinal hernia repair (day 67), after which they were discharged home in good condition. There were trace levels of Eculizumab in cord blood samples taken at delivery, thought secondary to contamination with maternal blood.

In the case of Eculizumab, the “24 h urine collection protein” value ([1]; after first dose, before re-dosing on treatment day 7) is reported as 383 mg, the blood pressures ([1]; by 24 h after the second infusion (treatment day 7)) is reported as “improved” and the “LDH, haptoglobin, AST, and platelet count” value ([1]; by treatment day 6, Eculizumab 1200 mg, one patient) is reported as “normalized”. The adverse effects ([1]; human, in vivo) was “without apparent adverse effects”, the “clinical and laboratory parameters” value ([1]; one patient, overall outcome) was “marked improvement” and the “pregnancy prolonged by” value ([1]; one patient, three doses of Eculizumab) was 17 days. For the same substance, the “24 h urine collection protein” value ([1]; treatment day 16, after third dose) was 4522 mg, the “safety of use in pregnancy” value [2] was “appears safe to use in pregnancy” and the “cord blood level lower than the maternal concentration” value ([3]; at delivery) was 20 fold. For the same substance, the “Eculizumab in the breast milk” value ([3]; breast milk) was “no detectable”, the “cord blood level of Eculizumab” value ([3]; cord blood samples taken at delivery) was 15 µg/mL and the “trough level of Eculizumab, to block complement-dependent hemolysis” value ([3]; treatment day 7, maternal) was “sub-therapeutic”.

From patent US20150330989A1, “METHOD AND SYSTEM FOR DIAGNOSING AND TREATING PREECLAMPSIA” (THE BRIGHAM AND WOMEN'S HOSPITAL, INC., priority 2012, published 2015)
